Measured values as given in PubChem BioAssay AID651636 (Sanford-Burnham Center for Chemical Genomics, 2012).
Only a part is listed here, and it is no random draw. Active and inactive are the calls of the source. Rule as the data show it: active = inhibition above about 38%; inactive = the rest.

By UniProt entry, the sequences of proteins in these tests, tags left out.
UniProt P32249, whole entry: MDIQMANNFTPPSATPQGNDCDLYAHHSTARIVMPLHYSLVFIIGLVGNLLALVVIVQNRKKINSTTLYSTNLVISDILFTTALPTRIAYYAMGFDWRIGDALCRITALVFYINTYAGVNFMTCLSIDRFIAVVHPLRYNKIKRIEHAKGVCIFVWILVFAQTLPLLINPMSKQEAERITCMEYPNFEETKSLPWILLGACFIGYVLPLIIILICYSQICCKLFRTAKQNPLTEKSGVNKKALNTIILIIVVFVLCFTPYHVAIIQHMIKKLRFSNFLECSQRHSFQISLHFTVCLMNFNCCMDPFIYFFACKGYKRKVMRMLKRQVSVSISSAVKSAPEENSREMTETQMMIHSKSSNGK

Target: G-protein coupled receptor 183 (Homo sapiens) (UniProt P32249)
Assay: blockers of oxysterol-driven EBI2 arrestin signaling – cell-based, luminescence, 7a,25-OHC stimulation, uHTS, primary screen (AID 651636);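 also: enzyme fragment complementation signal reports receptor beta-arrestin coupling in cells; 0% = agonist plus DMSO wells and 100% = wells without agonist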
Details: EBI2 beta-arrestin recruitment, 7a,25-OHC stimulated, at 5 µM, hits give high values

Structure (SMILES)	inhibition
CP(=O)(Nc1cccc(Br)c1)Oc1ccccc1 (centres undefined)	inactive: -3.3%
Cc1cc(C)cc(OP(C)(=O)Nc2ccccn2)c1 (centres undefined)	inactive: -10%
Cc1ccc(C)c(NP(C)(=O)Oc2ccccc2)c1 (centres undefined)	inactive: 1.33%
Cc1cc(C)cc(OP(C)(=O)Nc2ccc(C)cc2C)c1 (centres undefined)	inactive: 6.34%
CCOC(=O)c1ccc(NP(C)(=O)Oc2cc(C)cc(C)c2)cc1 (centres undefined)	inactive: -14.7%
COc1ccccc1OP(C)(=O)Nc1cccc(Br)c1 (centres undefined)	inactive: 1.66%
CC1=NCCc2c1[nH]c1ccccc21.O=[N+]([O-])c1cc([N+](=O)[O-])c(O)c([N+](=O)[O-])c1	inactive: -5.91%
O=C(O)c1cccc(Nc2c([N+](=O)[O-])cc([N+](=O)[O-])cc2[N+](=O)[O-])c1	inactive: 14.6%
CP(=O)(Nc1ccc(SC(F)(F)F)cc1)Oc1ccccc1 (centres undefined)	inactive: 0.457%
CCCOc1ccc(NP(C)(=O)Oc2ccc(Cl)cc2)cc1 (centres undefined)	inactive: -5.16%
COc1ccc(-c2ccccn2)cc1.O=[N+]([O-])c1cc([N+](=O)[O-])c(O)c([N+](=O)[O-])c1	inactive: 5.62%
CN1CCCCC1COC(=O)C1(O)c2ccccc2CCc2ccccc21 (centres undefined)	inactive: 0.82%
COc1ccccc1OP(C)(=O)Nc1c(C)cccc1C (centres undefined)	inactive: -1.37%
CCOC(=O)C(CC)C1=NC(C)(C)Cc2ccccc21.O=[N+]([O-])c1cc([N+](=O)[O-])c(O)c([N+](=O)[O-])c1 (centres undefined)	inactive: 2.47%
O=[N+]([O-])c1cc([N+](=O)[O-])c(Nc2nnnn2CCO)c([N+](=O)[O-])c1	inactive: 8.15%
CC1=C2N=C(C=C3N=C(C(C)=C4[N-][C@@](C)([C@@H]5N=C1[C@](C)(CCC(=O)NC[C@@H](C)OP(=O)([O-])O[C@H]1[C@@H](O)[C@@H](n6cnc7cc(C)c(C)cc76)O[C@@H]1CO)[C@H]5CC(N)=O)[C@@](C)(CC(N)=O)[C@@H]4CCC(N)=O)[C@@](C)(CC(N)=O)[C@@H]3CCC(N)=O)C(C)(C)[C@@H]2CCC(N)=O.[C-]#N.[Co+3]	inactive: 4.97%
Cc1nc2ccc3ccccc3c2s1.O=[N+]([O-])c1cc([N+](=O)[O-])c(O)c([N+](=O)[O-])c1	inactive: 4.78%
O=[N+]([O-])c1cc([N+](=O)[O-])c(-c2cnn(-c3ccccc3)c2)c([N+](=O)[O-])c1	inactive: 18.6%
CN(Cc1cccnc1)C(=O)COc1ccc(Cl)c(Cl)c1.O=[N+]([O-])c1cc([N+](=O)[O-])c(O)c([N+](=O)[O-])c1	active: 46.9%
